{"source": "paper PMC7938888", "about": "“Antidepressant drugs act by directly binding to TRKB neurotrophin receptors” (Cell, 2021)", "key": {"TRKB.Y433F": {"molecular_target": "T1, TRKB.Y433F (Mus musculus, UniProt P15209, Y433F)", "T1 construct": "wild-type GFP-tagged full length TRKB or the GFP-tagged Y433F TRKB mutant; host or cells: HEK293T", "assay": "Cell-free ligand binding assay, TRKB.Y433F mutant", "conditions": "biotinylated fluoxetine", "method": "(§1) The cell-free assays (binding assays) were performed in white 96-well plates, based on the protocol used for western-blotting or ELISA ([Baeza-Raja et al., 2016]; [Das et al., 2015]). The plates were precoated with anti-GFP, anti-FLAG, anti-TRK or anti-TRKB antibody (1:1000) in carbonate buffer (pH 9.8), ON at 4°C. Following blocking with 3% BSA in PBS buffer (2 h at RT), 120 ug of total protein from each sample (of lysates from HEK293T cells transfected to overexpress GFP-TRKB.wt or GFP-TRKB.Y433F) were added and incubated overnight at 4°C under agitation. […] The luminescence was determined via HRP-conjugated streptavidin (1:10000, 1h, RT) activity reaction with ECL by a plate reader. The luminescence signal from blank wells (containing all the reagents but the sample lystates, substituted by the blocking buffer) was used as background. The specific signal was then calculated by subtracting the values of blank wells from the values of the samples with matched concentration of the biotinylated ligand. For Figure 2E, the precipitated TRKB.wt or Y433F was incubated with tritiated imipramine (0-30μM) and the radioactive emission of the ligand was determined by scintillation (OptiPhase Supermix cocktail: #1200-439; MicroBeta2, Perkin-Elmer). […]"}, "in vivo": {"assay": "in vivo", "conditions": "mouse, prefrontal cortex, oral, 15 mg/kg/day, FLX brain concentration, 15 mg/kg/day in drinking water for 21 days, mean of Table S2"}, "GFP-TRKB": {"molecular_target": "T2, GFP-TRKB (Mus musculus, UniProt P15209)", "T2 construct": "wild-type GFP-tagged full length TRKB or the GFP-tagged Y433F TRKB mutant; host or cells: HEK293T", "assay": "Microscale thermophoresis (MST) in lysates of GFP-TRKB expressing HEK293T cells", "assay_type": "binding", "conditions": "unlabeled FLX 0-100 μM, 15 min, lysates of transfected HEK293T cells", "method": "Microscale Thermophoresis - MST - experiments were performed using Monolith NT.115 (Blue/Red) instrument (NanoTemper Technologies GmbH, Germany). The cell lysates of HEK293T cells expressing GFP-TRKB were used as a source of fluorescently labeled TRKB. HEK293T cells were transfected with GFP-fused TRKB as described and lysed 24h after transfection. […] The lysates of non-transfected HEK293T cells were used to evaluate background fluorescence, which appeared to be undetectable in current MST set up. […] The measurements were done in premium coated capillaries (NanoTemper Technologies GmbH, MO-K025) using LED source with 470nm and 50% infrared-laser power at 25°C. Hill model was used to evaluate binding affinity, each data point represents mean ΔFnorm values from four independent experiments. The bound fraction of the GFP-TRKB was determined and the fitting was performed using the Hill model method incorporated by the MO Affinity Analysis v2.3 software (NanoTemper Technologies)."}, "mice": {"test_system": "mice", "assay": "Ocular dominance plasticity (monocular deprivation, intrinsic signal imaging)", "assay_type": "in vivo, mouse", "method": "The “transparent skull” preparation was executed as described in literature ([Steinzeig et al., 2017]). Briefly, adult female mice (20-22 weeks old) were anesthetized via i.p. injection with a mixture containing: 0.05 mg/kg fentanyl (Hameln, Germany); 5 mg/kg midazolam (Hameln, Germany); 0.5 mg/kg medetomidine (Orion Pharma, Finland); diluted in saline (B Braun, Germany). The animals’ eyes were covered with protective-gel (Alcon, UK). The animal’s head was shaved and disinfected with ethanol and Betadine. The mouse head was then fixed on the stereotaxic frame and the temperature was maintained at 37°C. A mixture of lidocaine and adrenaline (Orion Pharma, Finland) was applied locally on the head and the skin was cut with spring scissors. The incision area was restricted 2 mm above the bregma and caudal edge of intraparietal bone. The scalp was removed and a focused air stream and a cotton swab were used to clean and stop bleeding. The periosteum was gently scratched away from the skull with an eye scalpel and the temporal muscles were pushed aside, in order to expose enough space around the area of interest to attach the metal holder. When the skull was smooth, white and dry, fat was removed from the skull rapidly by passing on it a cotton swab soaked in acetone and the air current was used to avoid its penetration into the bone. Then, with a metal stick, a thin layer of cyanoacrylate glue (Loctite 401, Henkel, Germany) was applied to the surface of the skull, in order to make the skull transparent. After waiting 10 minutes for the glue to dry, a first layer of acryl was applied on the skull surface with a brush. Acryl was used to prolong the life of the transparency and was prepared by stirring acrylic powder (EUBECOS, Germany) with methacrylate liquid (Densply, Germany) until a nail-polish consistency was reached. […]\nOptical imaging. The saturation of haemoglobin in the primary visual cortex of the right hemisphere was measured to assess cortical activity ([Cang et al., 2005]; [Kalatsky and Stryker, 2003]). […]"}, "TRKB.V437A": {"molecular_target": "TRKB.V437A (Mus musculus, UniProt P15209, V437A)", "conditions": "biotinylated fluoxetine", "method": "as §1"}, "TRKB.S440A": {"molecular_target": "TRKB.S440A (Mus musculus, UniProt P15209, S440A)", "conditions": "biotinylated fluoxetine", "method": "as §1"}}, "data": [{"compound": "CNCCC(Oc1ccc(C(F)(F)F)cc1)c1ccccc1", "note": "(centres unmarked) [FLX, fluoxetine]", "values": [{"measurement": "FLX binding to TRKB.Y433F", "setting": "TRKB.Y433F", "value": "essentially lost"}, {"measurement": "concentration at 21 days", "setting": "in vivo", "value": "31.9 ± 5.9", "unit": "µM"}, {"measurement": "direct binding to GFP-tagged TRKB (MST)", "setting": "GFP-TRKB", "value": "directly binds"}, {"measurement": "effect on shift in ocular dominance", "setting": "mice; TRKB.Y433F mice", "value": "lost"}, {"measurement": "shift in ocular dominance after 7-day monocular deprivation", "setting": "mice; adult mice, FLX 10 mg/kg/day for 4 weeks", "value": "dramatic shift in OD"}, {"measurement": "effect on shift in ocular dominance", "setting": "mice; wild-type mice co-treated with pravastatin", "value": "lost"}, {"measurement": "FLX binding to TRKB.V437A", "setting": "TRKB.V437A", "value": "essentially lost"}, {"measurement": "FLX binding to TRKB.S440A", "setting": "TRKB.S440A", "value": "significantly reduced"}]}]}
